The values below come from US9701711B2, “Modulators of protease activated receptors” (THE UNIVERSITY OF QUEENSLAND, priority 2010, dated 2017).

Molecules are shown by their SMILES.

Broadly, the IC50 is the concentration needed to halve the response being measured. The low end stands for higher potency, the high end for lower potency.

For the assay, the target named is T1, PAR2 (Homo sapiens, UniProt P55085).
T1 sequence (P55085 26-397): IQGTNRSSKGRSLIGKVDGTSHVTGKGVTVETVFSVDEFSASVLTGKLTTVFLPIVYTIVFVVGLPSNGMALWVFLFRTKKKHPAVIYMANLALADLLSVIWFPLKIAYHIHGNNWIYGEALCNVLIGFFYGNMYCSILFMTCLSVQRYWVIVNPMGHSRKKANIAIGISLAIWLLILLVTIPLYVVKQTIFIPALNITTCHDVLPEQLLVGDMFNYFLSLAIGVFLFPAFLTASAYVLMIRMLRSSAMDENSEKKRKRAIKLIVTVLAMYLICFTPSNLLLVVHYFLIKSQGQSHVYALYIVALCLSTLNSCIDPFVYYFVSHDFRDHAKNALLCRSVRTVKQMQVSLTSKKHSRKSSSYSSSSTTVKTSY
As to the kind of experiment: PAR2 agonist inhibition (antagonism) by intracellular Ca2+ release in HT29 cells. Type of assay: cell-based. Details: Agonists of Ca^2+ release in HT29 cells; endogenous in cells; host or cells: HT29 (human cell line, cultured per ATCC information). To be noted: 30 min pre-incubation, then PAR2 agonist (1 μM 2f-LIGRLO-NH2). From the text: The ability of the compounds of the present invention to activate PAR2 may be assessed via calcium mobilisation assays. It is appreciated that compounds that activate the release of intracellular calcium from one type of cell are agonists or partial agonists, while those that inhibit such release may be antagonists. […] The general assay protocols may vary slightly depending on the chosen cell line. In general, during cell culture passage, cell dissociation solution (CDS, Sigma Aldrich) is used to replace trypsin to dissociate cells from surface. Lipopolysaccharide (LPS) and trypsin are purchased from Sigma Aldrich. […] ELISA sets are purchased from BD Pharmingen (San Jose, Calif.) and cytokine array kits are purchased from RayBiotecho (Norcross, Ga.).
Cells are seeded overnight in 96-well black walled, clear bottomed, plate at approximately 2×10^4 to 4×10^5 cells per well. […] The cells are then washed twice with HBSS and transferred to a Polarstar spectrotluorimeter (BMG, Durham N.C.). […]
The cells were then treated with 1 μM of the PAR2 agonist 2f-LIGRLO-NH2 (FIG. 2A. n=5) or 100 nM Trypsin (FIG. 2B, n=1). […] Net changes in fluorescence were calculated as a percentage relative to the maximum response given 1 μM 2f-LIGRLO-NH2 or 100 nM Trypsin. Changes in fluorescence (% response) were plotted against logarithmic compound concentrations. […]

`CC[C@H](C)[C@H](NC(=O)[C@H](CC1CCCCC1)NC(=O)c1cc(N)no1)C(=O)N1CCC2(C=Cc3ccccc32)CC1` [Compound 42, 5-(3-amino-isoxazoyl)-Cha-Ile-spiro[indene-1,4′-piperidine]] showed an IC50 of 1200 nM.
